# Experimental data reported in PubChem BioAssay AID602329 (Broad Institute, 2012).
# By UniProt entry, the sequences of proteins in these tests, tags left out.
# UniProt Q92698, whole entry: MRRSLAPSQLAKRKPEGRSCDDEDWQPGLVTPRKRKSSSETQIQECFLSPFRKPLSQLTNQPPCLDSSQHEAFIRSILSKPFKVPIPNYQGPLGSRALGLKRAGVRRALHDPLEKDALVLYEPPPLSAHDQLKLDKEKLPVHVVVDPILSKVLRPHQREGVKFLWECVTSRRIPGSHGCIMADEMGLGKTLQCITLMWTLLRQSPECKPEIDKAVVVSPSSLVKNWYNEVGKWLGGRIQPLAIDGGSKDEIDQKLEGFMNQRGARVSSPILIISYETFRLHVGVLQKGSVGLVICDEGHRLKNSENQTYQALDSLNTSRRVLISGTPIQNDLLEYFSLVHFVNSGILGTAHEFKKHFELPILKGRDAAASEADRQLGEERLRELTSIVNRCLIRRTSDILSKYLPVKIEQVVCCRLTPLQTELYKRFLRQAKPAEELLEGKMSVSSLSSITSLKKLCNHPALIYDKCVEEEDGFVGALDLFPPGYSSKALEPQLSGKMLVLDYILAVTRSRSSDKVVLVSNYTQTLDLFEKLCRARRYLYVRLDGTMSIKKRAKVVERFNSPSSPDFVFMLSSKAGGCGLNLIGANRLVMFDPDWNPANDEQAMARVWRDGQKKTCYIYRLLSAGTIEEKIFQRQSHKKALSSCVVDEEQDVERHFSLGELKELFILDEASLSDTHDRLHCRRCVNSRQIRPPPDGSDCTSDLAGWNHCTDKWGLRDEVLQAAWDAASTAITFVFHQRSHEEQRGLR
# This is a selection; strong and weak results do not stand in their true shares. Some tests of the compounds listed are not included; inactive here does not mean inactive elsewhere. Active and inactive are the calls of the source.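 The calls were made as follows: active = mean normalized replicate activity at least 40 and at least half of replicates scoring 40 or more; inconclusive = only one of the two criteria met; inactive = mean below 40 and under half of replicates reaching 40.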
# Biological target: DNA repair and recombination protein RAD54-like (Homo sapiens) (UniProt Q92698)
# Assay: RAD54 Holliday junction migration blockers – biochemical, fluorescence, single point, primary screen (AID 602329);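 also: 0% = median of neutral control wells and 100% = median of positive control wells; inhibitors cause a drop in the FAM fluorescence signal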
# Details: RAD54 Holliday junction branch migration, FAM/BHQ fluorescence; at 10.4 µM; active compounds read high
row,Compound,inhibition
1,CN(C)c1ccc(C(=O)NCC2(N(C)C)CCCCC2)cc1,inactive: -3.41%
2,O=C(NCC1(N2CCCCC2)CCCCC1)c1cc(F)c(F)cc1Cl,inactive: 2.22%
3,COc1ccc(C(=O)NCC2(N(C)C)CCCCC2)cc1,inactive: -5.04%
4,O=C(NCC1(N2CCCCC2)CCCCC1)c1cccc(Br)c1,inactive: 3.36%
5,Cc1cc(C(=O)NCC2(N3CCCCC3)CCCCC2)ccc1[N+](=O)[O-],inactive: 4.35%
6,CN1[C@@H]2CC[C@H]1CC(OC(=O)C(O)(c1ccccc1)c1ccccc1)C2 (some centres undefined),inactive: 6.06%
7,COc1cc(SC)ccc1C(=O)NCC1(N(C)C)CCCCC1,inactive: 10.8%
8,CCN(CC)CC(C)C(C)OC(=O)C(O)(c1ccccc1)c1ccccc1 (centres undefined),inactive: 3%
9,CC(C)N1C(=O)CC2(CCN(CCOC(=O)C(O)(c3ccccc3)c3ccccc3)CC2)C1=O,inactive: 3.35%
10,Cc1ccc(C(=O)NCC2(N3CCCCC3)CCCCC2)cc1,inactive: -4.8%
11,C=C(C)C#CC(O)(C(=O)OC1CCN(C)CC1)c1ccccc1 (centres undefined),inactive: 8.02%
12,COc1ccc(Br)c(C(=O)NCC2(N3CCCCC3)CCCCC2)c1,inactive: -3.78%
13,O=C(OCCN1CCCC1)C(O)(c1ccccc1)c1ccccc1,inactive: 6.34%
14,CC(C)Oc1ccc(C(=O)NCC2(N(C)C)CCCCC2)cc1,inactive: 3.73%
15,CN(C)c1cccc(C(=O)NCC2(N(C)C)CCCCC2)c1,inactive: 9.61%
16,CN(C)C1(CNC(=O)c2ccc(Br)cc2)CCCCC1,inactive: -4.55%
17,COc1cc(C(=O)NCC2(N(C)C)CCCCC2)c([N+](=O)[O-])cc1OC,inactive: -4.43%
18,COc1ccc(Cl)cc1C(=O)NCC1(N(C)C)CCCCC1,inactive: -8.32%
19,O=C(NCC1(N2CCCCC2)CCCCC1)c1cccc(Cl)c1,inactive: 3.11%
